Assay results: patent publication US7550469B2, “Heterocyclic amide derivatives and their use as dopamine D3 receptor ligands” (Aventis Pharmaceuticals Inc., priority 2001, dated 2009)

Protein sequences, listed by entry. Tags and fused reporters are not part of them.
UniProt P35348, whole entry: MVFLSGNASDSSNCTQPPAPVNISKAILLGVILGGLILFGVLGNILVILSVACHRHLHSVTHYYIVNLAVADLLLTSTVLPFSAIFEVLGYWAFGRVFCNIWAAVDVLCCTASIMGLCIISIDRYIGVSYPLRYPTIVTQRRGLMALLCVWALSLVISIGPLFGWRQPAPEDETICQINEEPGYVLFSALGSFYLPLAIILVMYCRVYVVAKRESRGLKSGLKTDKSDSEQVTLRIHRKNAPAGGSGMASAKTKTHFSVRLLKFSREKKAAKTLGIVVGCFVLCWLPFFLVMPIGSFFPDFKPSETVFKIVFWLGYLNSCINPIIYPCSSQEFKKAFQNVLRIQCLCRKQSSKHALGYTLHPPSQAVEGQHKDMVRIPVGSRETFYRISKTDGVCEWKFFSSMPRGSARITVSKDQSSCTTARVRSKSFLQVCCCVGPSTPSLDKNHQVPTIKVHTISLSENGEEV

Key:
[1] = test system: Alpha-1 adrenergic receptors from rat brain cortex; assay: [3H]Prazosin binding to alpha-1 adrenergic receptors from rat brain cortex (Protocol 4); conditions: Inh @ 1 μM
Description: [^3H]Prazosin Binding to Alpha-1 Adrenergic Receptors from Rat Brain Cortex
Objective: This in vitro assay is designed as a screen to identify compounds displaying a affinity for the a, adrenoceptor subtype in membranes from rat cortex. It measures the ability of the test compounds to displace [^3H]prazosin from the α1 sites.
Membrane Preparation: Rat brain tissue can be obtained from either fresh (male Wistar rats; 200-250 g) or frozen (male Sprague-Dawley 200-250 g from Harlan; cat. #BT-403) stocks. The cortex is dissected, homogenized in 50 vol (wet weight) ice-cold 50 mM Tris buffer (pH 7.7 at 25° C.). The homogenate is centrifuged at 48,000 g for 10 min, the pellet is resuspended in 50 mM Tris buffer and centrifuged a second time. The second pellet (P2) is resuspended to yield a concentration of 115 mg wet weight per 10 ml. […] Membranes should be mixed just before addition to ensure an even suspension. […] Total binding and nonspecific binding are determined in quadruplicate. […] Note: The radioactivity should be prepared just before the additions are made so that it is not allowed to sit on the bench for very long. • Packard GF/B Plate Pretreatment: The filter plates are presoaked for at least 30 min in ice cold Buffer B containing 0.05% polyethyleneimine (200 μl/200 ml) to maximize filtration efficiency and minimize filter blank binding. • Incubation & Filtration: Once buffer, compounds, [^3H]prazosin and membrane have been added (and mixed), the 96 well plates are incubated for 40 min at 37° C. and spaced 3-5 min apart. […] Using Packard film, each plate is heat sealed prior to being counted in a Packard Topcount Scintillation counter. […]

[2] = target: cloned human alpha-1A adrenergic receptors (α1a) (Homo sapiens, UniProt P35348); assay: [3H]Prazosin binding to cloned human alpha-1A adrenergic receptors expressed in CHO cells; conditions: read-out: h-α1 Ki, piperazines (n = 1) vs homopiperazines (n = 2)
Description: ^3H]PRAZOSIN BINDING TO CLONED HUMAN ALPHA-1A ADRENERGIC RECEPTORS (α1a) EXPRESSED IN CHINESE HAMSTER OVARY CELLS (CHO)
Purpose: This in vitro assay is designed as a screen to identify compounds displaying a affinity for the human α1a adrenoceptor subtype expressed in the membrane fragments of CHO cells. The assay measures the ability of the test compounds to displace [^3H] prazosin from α1a sites. • The identification of multiple vascular α1-addrenoceptors (α1a, α1b, α1d) in vitro has provided impetus to define the role(s) of these subtypes in cardiovascular regulation in vivo (Vargas and Gorman, 1995). […] Prazosin is a potent antagonist of the human α1a-adrenoceptor subtype, which has been cloned and is expressed in the membrane fragments of CHO cells. hα1a Receptor: The cloning of the human α1a cDNA was accomplished first by screening a human prostate cDNA library (Clontech), from which a portion of the coding region was obtained. This DNA fragment was then used to screen a human leukocyte genomic library (Clontech), and the rest of the coding sequence was obtained. Later these two fragments were spliced together. The entire coding sequence was then fully sequenced including matching PCR sequence with original genomic coding sequence, thus ensuring splice sites were joined correctly (Schwinn et al., 1995). Once sequenced, the gene was subcloned into the expression vector pcDNA3 (Invitrogen). Plasmid DNA was then used for transfection into CHO cells and G418 resistant clones were isolated. A clone expressing high levels of the hα1a receptor (as determined by mRNA and receptor binding data) was chosen and pharmacologically characterized. Culture Media: Media Ingredients for Adherent α1a expressing CHO Culture: • A. HAM's F-12 (Cellgro) • B. 10% 0.2 micron filtered Fetal Bovine Serum (FBS)(Cellgro) • C. 1% 0.2 micron filtered Penicillin-Streptomycin (Celigro) • D. G418 0.2 micron filtered (Geneticin 400 μg/ml)(Cellgro) • Cells are cultured using established methods and procedures in either 150×25 mm culture plates (scale up to 100 plates) or a combination of these plates and 70 roller bottles. One culturing/harvest cycle typically requires 2 weeks and yields between 100-400 mg protein. Plates or bottles are incubated at 37° C.+5% CO2. Storage: Cells are harvested by mechanical scraping, washed using PBS, collected in 250 ml Corning polypropylene centrifuge tubes, spun down (1500RPM) and resuspended in dH2O 10% DMSO (final volume per harvest is approximately 50 ml). Protein determination is made using the Biorad DC Assay Kit. […]
Assay Requirement: 0.5 cryovials per 96 well plate (assay volume=200 μl/well) [^3H]-Ligand: [7-methoxy-^3H]-Prazosin: 1.0 nM (NEN, NET-823) • 70-87 Ci/mmol Materials: Phentolamine mesylate (Research Biochemicals Int. #P-131) • 96 well flat bottom plates (Beckman) • Unifilter GF/B Plate (Packard) • Polyethylenimine (Sigma #P-3134) • TomTec or Packard Filtermate 196 Cell Harvesters • Packard TopCount Scintillation Counter Buffers: A: 50 mM Tris HCl; 0.1% ascorbate, pH 7.7 (incubation buffer) • B: 50 mM Tris HCl; pH 7.7 (wash buffer) Procedure: Assay additions are as follows (in the order indicated): • Total Binding=50 μl buffer A+50 μl [^3H]prazosin+100 μl membrane • Nonsp. Bd.=50 μl 10 μM phentolamine+50 μl [^3H]prazosin+100 μl membrane • Test Cpd.=50 μl compound+50 μl [^3H]prazosin+100 μl membrane • Compounds to be evaluated are weighed out to yield a 10 mM stock solution in DMSO in a 24 well polystyrene plate. […]

| Structure (SMILES) | r-α1 % Inh [1] | Ki [2] |
| --- | --- | --- |
| O=C(NCCCCN1CCCN(c2csc3cc(F)ccc23)CC1)c1ccc2[nH]ccc2c1 [S977824] | 47% | 0.0534 µM |
| O=C(NCCCCN1CCCN(c2csc3cc(F)ccc23)CC1)c1cc2ccccc2[nH]1 [S977818] | 0% | 0.598 µM |
| O=C(NCCCCN1CCCN(c2csc3cc(F)ccc23)CC1)c1c[nH]c2ccccc12 [S977822] | 34% | 0.111 µM |
